Experimental data taken from ChEMBL document CHEMBL4414622, “Synthesis, Purification, and Selective β2-AR Agonist and Bronchodilatory Effects of Catecholic Tetrahydroisoquinolines from Portulaca oleracea” (J Nat Prod, 2019).
pEC50: −log10 of the molar value.

Protein sequences, listed by entry. Tags and fused reporters are not part of them.
UniProt P08588, whole entry: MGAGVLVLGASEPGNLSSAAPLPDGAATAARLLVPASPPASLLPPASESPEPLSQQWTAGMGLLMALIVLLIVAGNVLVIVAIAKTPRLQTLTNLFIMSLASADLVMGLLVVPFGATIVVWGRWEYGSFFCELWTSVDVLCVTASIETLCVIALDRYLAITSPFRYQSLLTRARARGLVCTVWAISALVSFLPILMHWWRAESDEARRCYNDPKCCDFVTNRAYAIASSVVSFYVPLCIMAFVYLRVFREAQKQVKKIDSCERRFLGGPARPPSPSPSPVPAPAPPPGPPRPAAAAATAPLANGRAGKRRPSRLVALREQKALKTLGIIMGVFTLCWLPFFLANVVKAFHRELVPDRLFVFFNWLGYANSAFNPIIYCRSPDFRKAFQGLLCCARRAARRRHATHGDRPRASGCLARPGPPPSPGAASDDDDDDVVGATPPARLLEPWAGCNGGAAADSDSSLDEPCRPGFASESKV

Biological target: Beta-1 adrenergic receptor (Homo sapiens, UniProt P08588)

For `CNC[C@H](O)c1ccc(O)c(O)c1` [EPINEPHRINE], the pEC50 was 6.54.
